Earlier results, collected in patent US12246076B2, “Radiolabeled compounds for in vivo imaging of gastrin-releasing peptide receptor (GRPR) and treatment of GRPR-related disorders” (PROVINCIAL HEALTH SERVICES AUTHORITY, priority 2022, dated 2025).

Protein sequences, listed by entry. Tags and fused reporters are not part of them. Lines headed by an entry give the natural chain unless they say otherwise; changes in a name come on top.
UniProt P30550: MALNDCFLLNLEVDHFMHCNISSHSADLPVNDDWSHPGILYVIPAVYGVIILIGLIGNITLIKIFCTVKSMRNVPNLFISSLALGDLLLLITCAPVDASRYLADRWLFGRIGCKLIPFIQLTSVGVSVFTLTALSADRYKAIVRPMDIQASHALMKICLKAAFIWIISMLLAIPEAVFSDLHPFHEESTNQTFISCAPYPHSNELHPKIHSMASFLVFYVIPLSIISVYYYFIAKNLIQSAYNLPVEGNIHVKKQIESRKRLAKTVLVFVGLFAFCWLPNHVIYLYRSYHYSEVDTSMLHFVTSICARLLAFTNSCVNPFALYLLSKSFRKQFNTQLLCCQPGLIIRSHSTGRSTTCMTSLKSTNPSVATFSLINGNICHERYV

Target: T1, GRPR (Homo sapiens, UniProt P30550)
T1 construct: endogenous in cells; host or cells: PC-3 prostate cancer cells
Details: literature (Heimbrook 1991; Lin 1995); cited from earlier work

Q: For ranatensin, which “binding affinity to the GRPR” value is on record?
A: very strong binding affinity
